Measurements published in ChEMBL document CHEMBL1131327, “Selective Pneumocystis carinii dihydrofolate reductase inhibitors: design, synthesis, and biological evaluation of new 2,4-diamino-5-substituted-furo[2,3-d]pyrimidines” (J Med Chem, 1998).
pIC50: −log10 of the molar value.

Legend:
Dihydrofolate reductase [1] = target: T1, Dihydrofolate reductase (Rattus norvegicus, UniProt Q920D2)
T1 sequence (Q920D2 whole entry): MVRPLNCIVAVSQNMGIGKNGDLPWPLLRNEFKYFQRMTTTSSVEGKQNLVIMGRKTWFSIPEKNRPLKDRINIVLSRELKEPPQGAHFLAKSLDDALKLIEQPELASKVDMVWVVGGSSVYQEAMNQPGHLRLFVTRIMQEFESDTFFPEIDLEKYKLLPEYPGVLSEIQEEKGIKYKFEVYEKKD

Dihydrofolate reductase [2] = target: T2, Dihydrofolate reductase (Pneumocystis carinii, UniProt P16184)
T2 sequence (P16184 whole entry): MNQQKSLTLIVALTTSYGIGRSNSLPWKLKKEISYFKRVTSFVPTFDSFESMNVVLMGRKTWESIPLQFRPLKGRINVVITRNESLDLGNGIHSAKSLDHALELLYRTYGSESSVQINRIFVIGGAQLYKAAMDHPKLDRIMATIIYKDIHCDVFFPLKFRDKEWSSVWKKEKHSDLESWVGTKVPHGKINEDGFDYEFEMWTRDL

[3] = target: T3, Bifunctional dihydrofolate reductase-thymidylate synthase (Toxoplasma gondii, UniProt Q07422)
T3 sequence (Q07422 whole entry): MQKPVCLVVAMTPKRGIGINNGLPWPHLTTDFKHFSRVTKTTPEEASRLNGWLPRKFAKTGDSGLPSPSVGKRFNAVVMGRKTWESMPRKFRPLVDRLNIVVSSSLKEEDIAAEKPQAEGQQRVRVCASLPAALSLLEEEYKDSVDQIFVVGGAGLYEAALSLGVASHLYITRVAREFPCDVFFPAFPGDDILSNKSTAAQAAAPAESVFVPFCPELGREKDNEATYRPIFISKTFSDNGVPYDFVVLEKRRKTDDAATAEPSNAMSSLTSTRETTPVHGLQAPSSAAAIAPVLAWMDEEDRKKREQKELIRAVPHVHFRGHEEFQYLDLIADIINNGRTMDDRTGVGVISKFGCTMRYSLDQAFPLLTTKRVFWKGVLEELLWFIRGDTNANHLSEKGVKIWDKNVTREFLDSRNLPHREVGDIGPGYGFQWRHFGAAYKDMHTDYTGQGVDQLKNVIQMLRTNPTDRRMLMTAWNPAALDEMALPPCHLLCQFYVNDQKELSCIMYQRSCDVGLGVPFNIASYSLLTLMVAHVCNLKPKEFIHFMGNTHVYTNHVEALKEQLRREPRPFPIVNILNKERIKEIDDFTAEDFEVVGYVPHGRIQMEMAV

SMILES | pIC50 (Dihydrofolate reductase [1]) | pIC50 (Dihydrofolate reductase [2]) | pIC50 [3]
Nc1nc(N)c2c(CNc3cccc4ccccc34)coc2n1 | 4.92 |  | 
Nc1nc(N)c2c(CNc3ccc(Oc4ccccc4)cc3)coc2n1 | 4.79 | 5.09 | 
CN(Cc1coc2nc(N)nc(N)c12)c1cc(Cl)c(Cl)c(Cl)c1 | 4.46 |  | 4.67
